The data set is described as follows: In vitro skin flux study of free form oxybutynin gels, modified Franz diffusion cell. The format is in vitro ADME. The note with it: Table 15, mean ± SD, n = 3 skin donors. The method, then:
In vitro skin flux studies of Examples 9 through 11 were conducted using full-thickness skin samples (approximately 500 μm) obtained from skin banks. The full-thickness skin samples were stored at −5° C. until experiments were conducted. The gender, age, sex and anatomical site information for each donor was recorded when available.
The method used to apply a thin film of gel to the surface of the skin was adapted from Chia-Ming Chiang et al., Bioavailability assessment of topical delivery systems: in vitro delivery of minoxidil from prototypical semi-solid formulations, IJP, 49:109-114, 1989, which is incorporated herein by reference. The stratum corneum side of a piece of skin was attached to one side of an adhesive-coated metal shim having a circular hole of 0.64 cm^2 cut in the center. The shim-membrane assembly was placed on top of a flat glass surface, and approximately 15 μL of a formulation was dispensed into the central cavity. With a microscope slide, the gel was spread across the surface of the skin, loading a dose of approximately 7 μL over the 0.64 cm^2 diffusional surface area. The applied dose was approximately 11 μL of gel per cm^2 diffusional surface area, which is typical for topical applications.
The gel-loaded shim-membrane assembly was clamped between the donor and receiver compartments of a modified Franz diffusion cell with the dermal side facing the receiver solution. The receiver compartment was filled with 0.02% (w/v) NaN3 to maintain sink conditions on the receiver side throughout the duration of the experiment. The donor compartment was unoccluded and open to the atmosphere. Cells were placed in a water bath heated with circulating water and calibrated to maintain the skin surface temperature at (32±1)° C.
At predetermined time points, the entire contents of the receiver compartment was collected for quantifying the amount of drug, and the receiver compartment refilled with fresh receptor medium, taking care to eliminate any air bubbles at the skin/solution interface. Each of the samples were analyzed using high performance liquid chromatography (HPLC). The cumulative amount of drug permeated per unit area at any time t (Qt, μg/cm^2) was determined over a 24-hr period as follows:
[formula] where, Cn is the concentration (μg/mL) of the drug in the receiver sample at the corresponding sample time, V is the volume of fluid in the receiver chamber, and A is the diffusional area of the cell (0.64 cm^2).
For the studies of Examples 8 through 10, typically four replicates were obtained per skin per system. A comparison of the means of the values obtained for a given system from each skin indicated differences in permeation due to differences in skin.

Where [1] appears, read: optically pure isomer as oxybutynin chloride gel Et/W/Gl/G/D1/N 73.2/17.9/1.0/2.0/4.4/1.5.
The mark [2] stands for this setting: optically pure isomer as oxybutynin free base gel Et/W/Gl/G/D2/H 73.2/18.3/1.0/2.0/4.0/1.5.

In the case of (R)-oxybutynin, the “Qt (t = 24 hours)” value runs as follows: under setting [1], 6.98 ± 4.26 μg/cm^2/t; under setting [2], 7.08 ± 5.43 μg/cm^2/t.

Take (S)-oxybutynin: the “Qt (t = 24 hours)” value is, setting by setting: under setting [1], 6.24 ± 3.77 μg/cm^2/t; under setting [2], 6.87 ± 5.35 μg/cm^2/t.
